Results from US20250128113A1, “Decontamination Composition and Application Thereof” (published 2025).

Columns and labels:
Zebrafish larvae = Zebrafish larvae test of degradation of L and Agent Yellow (HD+L); settings: in the presence of 0.5% sodium hypochlorite
Zebrafish embryos = assay: Zebrafish embryo survival test of HD and its CPO degradation products; settings: embryos exposed to 0.5% sodium hypochlorite

OCl
effect on zebrafish larvae (Zebrafish larvae): immediately damaged, died within a few minutes, and decomposed after 5 minutes | damage to embryos (Zebrafish embryos): immediately damaged
